For one compound, Ki results are on record in article PMC3115046, “Analyzing Airway Inflammation with Chemical Biology: Dissection of Acidic Mammalian Chitinase Function with a Selective Drug-like Inhibitor” (Chemistry & Biology, 2011).

For this test, the target named is T1, human AMCase (hAMCase) (Homo sapiens, UniProt Q9BZP6).
T1 construct: A fragment corresponding to hAMCase 22-398 (bp 64–1194) was ligated into the pPIC9 vector; made in house; host or cells: Pichia pastoris GS115
T1 sequence (Q9BZP6 22-398): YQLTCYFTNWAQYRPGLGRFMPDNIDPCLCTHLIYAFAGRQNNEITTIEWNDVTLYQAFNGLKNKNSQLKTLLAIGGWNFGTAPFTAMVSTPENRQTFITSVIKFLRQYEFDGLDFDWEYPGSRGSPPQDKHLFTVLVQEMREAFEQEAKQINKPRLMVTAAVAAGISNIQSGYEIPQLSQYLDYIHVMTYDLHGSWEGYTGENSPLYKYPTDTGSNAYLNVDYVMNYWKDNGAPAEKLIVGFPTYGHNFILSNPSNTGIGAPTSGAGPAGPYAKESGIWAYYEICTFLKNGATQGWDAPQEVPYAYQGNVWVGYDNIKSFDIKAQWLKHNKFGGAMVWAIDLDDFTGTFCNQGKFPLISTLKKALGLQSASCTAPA
The experiment in a line: Chitinase activity assay with fluorescent 4-MU substrate, hAMCase. The test is classed as biochemical. The note with it: Lineweaver-Burk plot; read-out: Ki against hAMCase, competitive inhibition model.

A word on the Ki: it is a dissociation constant, usually derived from enzyme kinetics or from competition with a known ligand. With `Cn1cnc2c1c(=O)n(CCCn1c(=O)c3[nH]cnc3n(C)c1=O)c(=O)n2C` [bisdionin F], the Ki stood at 420 ± 10 nM.
